Test results: patent publication US8268635B2, “Methods of identifying agents that selectively activate p38 and/or NKkB signaling” (priority 2006, dated 2012)
“Also recorded” adds a separate entry of the source.

Tests used:
neutrophils = assay: Neutrophil superoxide production, lucigenin chemiluminescence assay; type: cell-based, human; conditions: agent alone as stimulus
Method: Neutrophils were pre-treated with varying concentrations of SB203580 for 30 min and then exposed to 10 μM TNF70-80. The lucigenin enhanced chemiluminescence produced by the cells was measured in a luminometer. The peak initial rate of chemiluminescence produced is presented as the mean±sem of six experiments. The response in the presence of the inhibitor is expressed as a % of the control response. Statistical analyses, *p<0.05 and **P<0.01 when compared with control response.
Neutrophil superoxide production was measured as the chemiluminescence generated by the reduction of lucigenin, essentially as described previously (Kumaratilake, L. M., Rathjen, D. A., Mack, P., Widmer, F., Prasertsiriroj, V., and Ferrante, A. (1995) J. Clin. Invest. 95: 2315-2323). Briefly, to 1×10^6 neutrophils in 400 μl of HBSS was added 100 μl of stimulus and 500 μl of 250 μg/ml of lucigenin. The chemiluminescence was measured in a luminometer (Berthold Technologies, Bad Wildbad, Germany) over a 20 min period and the data imported into Microsoft Excel (Redmond, Wash.). […]

p38 = p38 activation in 70Z/3 cells transfected with hTNFR1 constructs; type: cell-based, mouse
Method: FIG. 5(a) and (b) show the inability of TNF70-80 to stimulate p38 activation in cells lacking a TNFR. […] The cells were then lysed, protein contents quantified and subjected to p38 kinase assay by Western blot. The results are presented as the mean+−sem of 3 experiments.
The cells were maintained in RPMI-1640 medium with 4.5 g/L glucose, 2 mM L-glutamine, […] 2-mercaptoethanol and 10% FCS in an atmosphere of 95% air and 5% CO2. Cells were plated onto 10 cm plates at 4×10^7 cells in 15 ml culture medium. Before performing transient transfection, plasmid DNA (hTNFR1), kindly provided by Dr M. Kronke, Institute of Medical Microbiology and Hygiene, Medical Center University of Cologne, Koln, Germany (Adam, D., Wiegmann, K., Adam-Klages, S., Ruff A., and Kronke, M. (1996) J. Biol. Chem. 271: 14617-22), (20 μg in 1 ml of RPMI1640) was mixed with LipofectAMINE 2000 (Invitrogen) (60 μl in 1 ml of RPMI) and the mixture were left at room temperature for 20 min. The mixture was directly added to the cells and incubated for 24 h. The cells were washed twice with HBSS before use.
However, the role of the TNFR in the action of the peptide remained to be clearly defined.
We have made deletion mutants in which C1, C1+C2+C3 and all four cysteine-rich domains are deleted. […] The data imply that the remaining extracellular sequence juxtaposed to the plasma membrane is sufficient for TNF70-80 to stimulate p38 activity.

For “TNF: Human recombinant TNF produced by Genentech, Inc.”, the “stimulation of neutrophil respiratory burst / superoxide production” value (neutrophils) was “stimulated a respiratory burst”, the “p38 activity in 70Z cells transfected with an empty vector” value (p38) was “did not stimulate the activity of p38” and the “p38 activity in 70Z cells, TNF receptor with C1-C3 deleted” value (p38) was “greatly diminished”. For the same substance, the “p38 activity in 70Z cells, TNF receptor with C1-C4 deleted” value (p38) was “not able to stimulate kinase activity”, the “p38 activity in 70Z cells, TNF receptor with C1 domain deleted” value (p38) was “able to stimulate the activity of p38” and the “p38 activation in 70Z/3 cells transfected with wild type hTNFR1” value (p38; 5 min, TNF 1000 U/ml, peptides 10 μM) was “caused the activation of p38; also recorded: stimulated the activity of p38 in cells transfected with wild type receptors”. For the same substance, the “p38 activation in non-transfected 70Z/3 cells” value (p38; cells lacking TNFR, 5 min, TNF 1000 U/ml, peptides 10 μM) was “neither TNF nor TNF70-80 activated p38”.
